Data from patent US9169260B2 (MERCK SHARP & DOHME CORP., priority 2011, dated 2015).

By UniProt entry, the sequences of proteins in these tests, tags left out.
UniProt Q9NWZ3, whole entry: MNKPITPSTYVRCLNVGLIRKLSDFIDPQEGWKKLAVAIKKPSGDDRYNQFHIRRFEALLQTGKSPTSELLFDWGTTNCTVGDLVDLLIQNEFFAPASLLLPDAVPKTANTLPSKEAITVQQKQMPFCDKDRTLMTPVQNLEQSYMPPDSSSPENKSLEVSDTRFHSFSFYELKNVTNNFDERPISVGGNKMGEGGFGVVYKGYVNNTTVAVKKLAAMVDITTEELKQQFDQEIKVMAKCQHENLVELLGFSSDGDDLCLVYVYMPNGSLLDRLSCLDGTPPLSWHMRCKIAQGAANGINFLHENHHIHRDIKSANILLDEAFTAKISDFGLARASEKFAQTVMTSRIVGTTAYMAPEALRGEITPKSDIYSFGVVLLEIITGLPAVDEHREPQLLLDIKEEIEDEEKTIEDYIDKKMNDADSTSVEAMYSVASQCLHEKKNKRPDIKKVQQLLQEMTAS

Molecular target: GST tagged IRAK-4 (Homo sapiens (Human), UniProt Q9NWZ3)
Experiment: IRAK-4 Kinase Assay (IMAP fluorescence polarization)
Type: biochemical
Procedure: The kinase activity of IRAK-4 is determined by its ability to catalyze the phosphorylation of a fluorescent polypeptide substrate. The extent of phosphorylation is measured using the IMAP technology (Molecular Devices) where the phosphorylated fluorescent substrate binds to the large M(III)-based nanoparticles which reduces the rotational speed of the substrate and thus increases its fluorescent polarization (FP).
20 μl reaction mixture contains 10 mM TriHCl, pH 7.2, 0.5 nM GST tagged IRAK-4 (SignalChem), 100 nM fluorescent peptide substrate (RP7030, Molecular Devices), 100 μM ATP, 1 mM DTT, 1 mM MgCl2, and 0.01% Tween 20. The reaction is initiated by the addition of ATP. After incubation for 30 minutes at 25° C., 60 μl of Progressive IMAP Reagent (Molecular Devices) is added to stop the reaction. Change in RP7030's FP is determined by a FP reader (Analyst HT, LH, BioSystems).

SMILES: Cc1ccc(-n2nc(C3CCCN(Cc4ccc(C5(C#N)COC5)cc4)C3)cc2NC(=O)c2cnn3cccnc23)cc1 (stereo not shown) [Example 293, N-[3-{1-[4-(3-cyanooxetan-3-3/1)benzyl]piperidin-3-yl}-1-(4-methylphenyl)-1H-pyrazol-5-yl]pyrazolo[1,5-a]pyrimidine-3-carboxamide]
- IC50: < 1 µM
